8 compounds from PubChem BioAssay AID504770 (ICCB-Longwood Screening Facility, Harvard Medical School, 2011) can be followed below.

Only a part is listed here, and it is no random draw. Some of these compounds have results that are not shown, active ones among them. Calls of active or inactive are those of the source. Cut-off read from the data, not from the text of the source: active = z-score below about -2 (passing the limit was not always enough); inactive = the rest.

A short description of the assay: PubChem AID 504770. The note with it: E. coli YBA685 rctB-dependent plasmid, OD600 growth, 3 h; stronger effect = lower value.
In the case of `COc1ccc(OC)c(C=C(C#N)C#N)c1`, the z-score is inactive: -1.25.

On to `CN(C)c1ccc(C(=O)NCC2(N(C)C)CCCCC2)cc1`, for which the z-score was inactive: -0.8.

Regarding `O=C(NCC1(N2CCOCC2)CCCCC1)c1cnc(Cl)c(Cl)c1`, the z-score was inactive: 0.05.

On to `O=C(NCC1(N2CCCCC2)CCCCC1)c1ccc2c(c1)OCCO2`, for which the z-score was inactive: -0.1.

In the case of `CN1C2CCC1CC(OC(=O)C(O)(c1ccccc1)c1ccccc1)C2` (stereo not drawn), the z-score is inactive: 0.05.

As for `O=C(OC1CN2CCC1CC2)C(CO)(c1ccccc1)c1ccccc1` (stereo not drawn), the z-score was inactive: -1.2.

Turning to `N#CC(C#N)=Cc1ccccc1`, the z-score was inactive: -0.95.

As to `CN(C)C1(CNC(=O)c2ccncc2)CCCCC1`, the z-score is inactive: 0.1.
